This is an account of results in ChEMBL document CHEMBL4325929, “Discovery of Tetrahydropyridopyrimidines as Irreversible Covalent Inhibitors of KRAS-G12C with In Vivo Activity” (ACS Med Chem Lett, 2018).

Protein sequences, listed by entry. Tags and fused reporters are not part of them.
UniProt P01116, whole entry G12D: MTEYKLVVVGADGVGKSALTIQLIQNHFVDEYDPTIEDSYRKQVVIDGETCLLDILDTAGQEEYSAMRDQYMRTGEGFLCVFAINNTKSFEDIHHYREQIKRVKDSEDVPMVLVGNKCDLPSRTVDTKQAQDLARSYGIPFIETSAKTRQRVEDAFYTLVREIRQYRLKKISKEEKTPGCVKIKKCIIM
UniProt P01116, whole entry: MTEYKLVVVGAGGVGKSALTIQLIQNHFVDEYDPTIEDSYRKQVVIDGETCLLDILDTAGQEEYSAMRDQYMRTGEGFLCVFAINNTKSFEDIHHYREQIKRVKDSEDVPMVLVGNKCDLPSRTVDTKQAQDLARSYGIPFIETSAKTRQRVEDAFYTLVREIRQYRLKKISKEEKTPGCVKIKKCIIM

What all share (assay type): cell-based
Experiment [1] deals with GTPase KRas (Homo sapiens, UniProt P01116, G12D). The experiment in a line: Inhibition of KRAS G12D mutant in human AGS cells assessed as reduction in ERK phosphorylation measured after 3 hrs by Western blot analysis. For orientation: Immunoblotting shows a protein as a band on a membrane.
In experiment [2] the target is T1, GTPase KRas (Homo sapiens, UniProt P01116). Put plainly: Inhibition of wild type KRAS in human RKO cells assessed as reduction in ERK phosphorylation measured after 3 hrs by Western blot analysis.
The target in experiment [3] is T2, GTPase KRas (Homo sapiens, UniProt P01116, G12C). The experiment in a line: Inhibition of KRAS G12C mutant in human MIAPaCa2 cells assessed as reduction in ERK phosphorylation measured after 3 hrs by Western blot analysis.
Experiment [4] deals with T1, GTPase KRas. Put plainly: Inhibition of wild type KRAS in human SNUC5 cells assessed as reduction in ERK phosphorylation measured after 3 hrs by Western blot analysis.
Experiment [5] concerns the target T2, GTPase KRas. The experiment in a line: Inhibition of KRAS G12C mutant in human NCI-H358 cells assessed as reduction in ERK phosphorylation measured after 3 hrs by Western blot analysis.

Some results are limits rather than exact numbers.

The IC50 is the concentration that gives 50% inhibition. Turning to `C=CC(=O)N1CCN(c2nc(OC[C@@H]3CCCN3C)nc3c2CCN(c2cc(O)cc4ccccc24)C3)CC1`, the IC50 on GTPase KRas [1] is greater than 16 µM; at GTPase KRas [2], greater than 16 µM; on GTPase KRas [3] it was 0.048 µM; at GTPase KRas [4], greater than 16 µM; on GTPase KRas [5], 0.07 µM.
